Results on one substance are retold here after EP4141110A1 (priority 2020, dated 2021).

This series concerns mice. The settings on record: mouse, in vivo.

Turning to “iron polymaltosate hydroxide [Fe(C12H22O11)3]”, the “Therapeutic ratio × 10^-7” value is listed as 250 × 10^-7.
